## Measured affinities in a library of Ab-14 light chain variants

From the AlphaSeq antibody data of Li et al. 2023 (doi:10.1038/s41467-023-39022-2), copy in the FLAb collection.

Target: peptide PDVDLGDISGINAS, taken from heptad repeat 2 (HR2) of SARS-CoV-2 spike.

The variants keep the heavy chain, the linker and the frameworks of Ab-14 (scFv order VH, three GGGGS repeats, VL).
VH: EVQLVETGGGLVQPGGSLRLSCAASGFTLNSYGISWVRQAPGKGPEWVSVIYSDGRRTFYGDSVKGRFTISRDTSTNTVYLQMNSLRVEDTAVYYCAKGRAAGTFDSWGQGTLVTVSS
VL: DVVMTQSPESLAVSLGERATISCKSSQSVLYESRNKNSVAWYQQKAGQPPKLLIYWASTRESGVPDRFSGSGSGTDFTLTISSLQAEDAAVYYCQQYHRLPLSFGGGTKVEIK

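These sequences belong to a second round, designed from the earlier measurements on random variants of the parent. Group labels follow the data file (Ctrl: baseline library sampled from a position-specific scoring matrix, with some repeated check sequences; En: ensemble of fine-tuned language models; GP: Gaussian process model; HC: hill climbing; Gen: genetic algorithm; Gibbs: Gibbs sampling; a sequence that several methods proposed may carry one label only). The assay is AlphaSeq: two haploid yeast populations carry antibody and antigen on their surface. Binding brings cells together so that they mate, and sequencing counts the barcode pairs among the diploids. Scores were corrected for input abundance and mapped to Kd with protein pairs of known affinity run in the same pool. Mating was done six times.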

Variants are written as CDR1, CDR2 and CDR3 of the light chain (limits as in the source). Parent: KSSQSVLYESRNKNSVA, WASTRES, QQYHRLPLS. Affinities are written as log10 Kd with Kd in nM; a lower number is a better binder. Where no diploid with the target was found in that replicate, the entry reads "n.d.": below detection, most likely a poor binder, though not proof of it. Background: pairings of all light chain designs with three empty control strains gave a value in 4% of cases (median 2.64, 5th percentile 1.59). Values in that range, when seen in few replicates, are hard to tell from nonspecific mating. For each scFv, signals with the empty controls are counted beside the result, with their mean in brackets. Values of this round are not directly comparable with the first-round values of the same sequences. The authors' rule: three or more of the six replicates give a measured affinity, fewer mean a poor binder. The parent sequence was in this pool as ten entries: three were never detected, three once, and four in most replicates, with averages from 0.34 to 2.37.

CDR-L1 | CDR-L2 | CDR-L3 | group | replicates, log10 nM | signal with controls
KLLQEVSGRSQNRNSVA | HNSTRED | QQYDRLPLI | En_HC | n.d. / 3.26 / 2.69 / 2.26 / n.d. / 2.71 | 2 of 18 (2.62)
KVSEFMRGLMMRTDSIA | DNETRNS | QQYDRLPLS | En_Gen | 2.16 / 1.68 / 1.38 / 2.20 / 2.08 / 1.45 | 1 of 18 (2.91)
TIGQMFNGESRIRNSVA | QASTRCE | QSYDRLPLA | En_HC | 0.14 / 0.14 / 0.06 / 0.00 / -0.35 / 0.22 | 1 of 18 (2.14)
QIALSTEEVGIQKNSIA | EETVRPA | QQYLRLPLH | En_Gibbs | 1.57 / 1.55 / 0.82 / 1.88 / 1.28 / 1.86 | 0 of 18
KLMQSVEQESRNKNSVA | HASLREV | QAYHRLPLS | GP_Gibbs | 0.65 / 0.40 / 0.28 / 0.54 / 0.49 / 0.85 | 1 of 18 (2.88)
KSDQSVLYESRNKNSVA | EASTRES | QQYHRWPLS | Ctrl | n.d. / n.d. / n.d. / n.d. / n.d. / 2.84 | 0 of 18
HLSDFLSYGKDLQAAVA | GVQTRMT | QQYARLPLF | En_Gibbs | 0.21 / 0.05 / -0.16 / -0.22 / -0.04 / 0.10 | 0 of 18
KLRQSTLYESRNPNSVA | GASTRES | QQYHRLPLS | GP_HC | -0.16 / -0.41 / -0.51 / -0.43 / -0.51 / -0.21 | 0 of 18
KISQEKLYESRNKNSVA | DASTRES | QQYHRLPLS | GP_HC | -0.46 / -0.50 / -0.61 / -0.71 / -0.73 / -0.66 | 0 of 18
KVLQSQEYESRNKNSVA | HASTRED | QQYHCLPLS | GP_HC | 0.46 / 0.49 / 0.52 / 0.53 / 0.78 / 0.80 | 1 of 18 (2.44)
NLSQSWLYESRNKNSVA | DGNTRES | QQYHRLPLS | GP_HC | 0.11 / 0.12 / -0.30 / -0.35 / -0.25 / -0.07 | 1 of 18 (2.23)
TLTGAMHTQMHNTNSVA | DLTTRGN | QQYHRLPLS | En_Gen | 0.73 / 0.53 / 0.49 / 0.29 / 0.46 / 0.57 | 0 of 18
KLSQAVLYESRNCNSVA | WASTRES | QQYCRLNCS | Ctrl | n.d. / n.d. / n.d. / n.d. / n.d. / n.d. | 1 of 18 (2.17)
MLSQMWAIGMKVSNSVA | QASTRFD | QQYERLPFI | En_Gen | n.d. / n.d. / 1.28 / n.d. / n.d. / n.d. | 0 of 18
KLSMITGHMSMSRNNVA | EMVTREN | QQYDRLPLA | En_Gen | 0.47 / 0.28 / 0.30 / 0.22 / 0.05 / 0.38 | 0 of 18
KLDQSVGYESRNKNNVA | GGSQRES | QQYHRLPLS | GP_Gibbs | 0.81 / 0.16 / 0.39 / 0.20 / 0.23 / 0.52 | 1 of 18 (2.43)
RLTQQMYGFNRHANAIA | SGAERQW | QQYARLPIS | En_Gibbs | 4.18 / 1.77 / 2.99 / 2.03 / 1.50 / n.d. | 0 of 18
KLEQSELYESRNKNSVA | GASTRES | QQYHRLPLS | GP_Gen | 0.32 / 0.56 / 0.06 / 0.35 / 0.42 / 0.45 | 0 of 18
HSSPSVYYESRNKNSVA | NASTRES | QQYHRLPLQ | GP_HC | -0.11 / -0.37 / -0.28 / -0.57 / -0.22 / -0.18 | 0 of 18
KLMTSDLYESRMKNAVA | DASTRMS | QQYHRLPLS | GP_Gibbs | 0.11 / -0.10 / -0.16 / -0.17 / -0.33 / 0.06 | 0 of 18
SSSQSWLYESRNKNSVA | GASTRES | QQYHRLPLS | GP_HC | 1.32 / 2.01 / 0.98 / 1.48 / 0.96 / 1.60 | 1 of 18 (4.22)
DSSQSVLYESRNKHSVA | AASARES | QQYHRLPLS | Ctrl | 1.29 / 1.38 / 0.95 / 1.01 / 1.75 / 1.08 | 0 of 18

Continued, with the values leading:

replicates, log10 nM | signal with controls | CDR-L1 | CDR-L2 | CDR-L3 | group
n.d. / n.d. / n.d. / n.d. / 2.79 / n.d. | 1 of 18 (3.12) | KWSQSNLYESRNKNSVA | NASTREV | QQYHRHPLS | Ctrl
0.57 / 0.57 / 0.12 / 0.39 / 0.70 / 0.47 | 2 of 18 (2.10) | HFQQSVPYESRNKNSVA | NASLRFS | QQYHRLPLS | GP_Gibbs
-0.02 / -0.18 / -0.47 / -0.36 / -0.24 / -0.06 | 0 of 18 | KSSISGLYESRNKNSVA | EASTREE | QQYHRLPLS | GP_HC
n.d. / 1.93 / 1.84 / 2.21 / 2.58 / n.d. | 0 of 18 | SSSQSVLYESRNKNSVA | YASTRNS | QQYHRLPLS | Ctrl
0.75 / 0.61 / 0.14 / 0.23 / 0.38 / 0.62 | 1 of 18 (2.06) | HISYSMAHLSRNKNNVA | NQQTRES | QQYHRLPLS | En_HC
0.42 / 0.29 / 0.54 / 0.07 / 0.77 / -0.29 | 1 of 18 (1.16) | KQSQSDLYESRNKNNVA | DASTRES | QQYHRLPLS | GP_HC
-0.18 / -0.19 / -0.50 / -0.31 / -0.12 / 0.01 | 1 of 18 (2.86) | KLPQSELYESRNKNSVA | NASYRES | QQYHRLPLS | GP_Gen
0.14 / 0.27 / -0.04 / -0.14 / -0.07 / 0.12 | 0 of 18 | KIGMTLNTLMHTKNNVA | DLVMREQ | QQYHRLPLS | En_Gen
-0.15 / -0.20 / -0.28 / -0.43 / -0.35 / -0.22 | 0 of 18 | KLSQSVWYESRNKNNVA | EASTRES | QQYHRLPLS | GP_Gen
0.89 / 0.85 / 0.73 / n.d. / 1.25 / 1.29 | 0 of 18 | IVSQLMLWGYHAKNSIA | EAQTRDN | QQYDRLPLF | En_Gen
n.d. / n.d. / n.d. / n.d. / n.d. / n.d. | 0 of 18 | WSSQSVLYESVNKNSVA | WASTREK | QQYHRLPLS | Ctrl
n.d. / n.d. / n.d. / n.d. / n.d. / n.d. | 0 of 18 | RLFNKMGQLQNIAQNVA | NATTVID | QQYMRLPIT | En_Gibbs
0.32 / 0.34 / -0.07 / -0.24 / 0.02 / 0.39 | 0 of 18 | TLVQSVMGGSRTKNSVA | NAEMRYD | QHYHRLPLS | En_HC
0.08 / -0.02 / -0.09 / -0.35 / -0.16 / 0.04 | 3 of 18 (2.58) | KVDQWEEYGSRNKNSVA | SASQRSS | QQYHRLPLS | GP_Gibbs
0.97 / 1.41 / 0.86 / 0.94 / 0.57 / 0.78 | 1 of 18 (1.69) | KLRMSTLYESRNKNSVA | WASTREV | QQYHRLPLS | GP_HC
-0.19 / -0.31 / -0.43 / -0.49 / -0.39 / -0.24 | 4 of 18 (2.47) | KLSQSVLYEQRNKNSVA | DASTRLS | QQYHRLPLS | GP_Gen
0.28 / 0.35 / 0.39 / 0.34 / 0.65 / 0.70 | 0 of 18 | KFEQWDFSQNRDDNSIA | HADDLVT | QQYSQLPLT | En_Gibbs
n.d. / n.d. / n.d. / 3.80 / n.d. / 2.15 | 2 of 18 (2.26) | KVSQSVMMLSRNKNSVA | DNSTSGS | QQYDRLPLS | En_HC
1.53 / 1.53 / n.d. / 2.57 / 2.37 / 2.69 | 0 of 18 | KSQQSVLYNSRNKNSVA | WASTRES | QQYHRLPLS | Ctrl
-0.48 / -0.13 / 0.03 / -0.35 / -0.27 / -0.47 | 1 of 18 (1.02) | KLSQSDLYESRNKNNVA | GASQRES | QQYHRLPLS | GP_Gen
0.74 / 1.15 / 1.23 / 0.98 / 0.96 / 1.09 | 3 of 18 (2.48) | KIGHGLTTESRQKNSVA | QTETRVS | QHYHRLPLS | En_HC
1.67 / 2.26 / 1.35 / 1.72 / 1.49 / 1.39 | 0 of 18 | KSSQSVLSESRNQYSVA | KASTRES | QQYHRLPLS | Ctrl
0.61 / -0.02 / -0.16 / -0.26 / -1.02 / -0.52 | 0 of 18 | KLSQSQLYESRNKNNVA | EASTRES | QQYHRLPLS | GP_Gen

The opening 5 entries, copied out:

CDR-L1 | CDR-L2 | CDR-L3 | group | replicates, log10 nM | signal with controls
KLLQEVSGRSQNRNSVA | HNSTRED | QQYDRLPLI | En_HC | n.d. / 3.26 / 2.69 / 2.26 / n.d. / 2.71 | 2 of 18 (2.62)
KVSEFMRGLMMRTDSIA | DNETRNS | QQYDRLPLS | En_Gen | 2.16 / 1.68 / 1.38 / 2.20 / 2.08 / 1.45 | 1 of 18 (2.91)
TIGQMFNGESRIRNSVA | QASTRCE | QSYDRLPLA | En_HC | 0.14 / 0.14 / 0.06 / 0.00 / -0.35 / 0.22 | 1 of 18 (2.14)
QIALSTEEVGIQKNSIA | EETVRPA | QQYLRLPLH | En_Gibbs | 1.57 / 1.55 / 0.82 / 1.88 / 1.28 / 1.86 | 0 of 18
KLMQSVEQESRNKNSVA | HASLREV | QAYHRLPLS | GP_Gibbs | 0.65 / 0.40 / 0.28 / 0.54 / 0.49 / 0.85 | 1 of 18 (2.88)